Each structure is given as a SMILES string.

Sequences of proteins named here, by UniProt entry; tags and fusion partners are left off.
UniProt P08913, whole entry: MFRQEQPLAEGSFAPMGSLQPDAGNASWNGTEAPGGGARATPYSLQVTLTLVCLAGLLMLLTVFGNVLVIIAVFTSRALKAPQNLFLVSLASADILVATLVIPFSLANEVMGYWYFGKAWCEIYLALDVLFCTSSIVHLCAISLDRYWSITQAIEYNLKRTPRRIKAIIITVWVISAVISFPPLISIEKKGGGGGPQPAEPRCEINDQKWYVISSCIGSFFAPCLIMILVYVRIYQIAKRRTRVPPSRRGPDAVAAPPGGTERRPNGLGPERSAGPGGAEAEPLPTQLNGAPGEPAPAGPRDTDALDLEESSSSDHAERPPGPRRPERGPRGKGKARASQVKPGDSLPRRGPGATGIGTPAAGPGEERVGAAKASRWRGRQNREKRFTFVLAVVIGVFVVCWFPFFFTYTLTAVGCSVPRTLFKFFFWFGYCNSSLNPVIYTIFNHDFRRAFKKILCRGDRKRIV

In this experiment the target is Alpha-2A adrenergic receptor (Homo sapiens, UniProt P08913).

On to `O=C1NCCN1CCN1CCC(c2cn(-c3ccc(F)cc3)c3ccc(Cl)cc23)CC1` [1-[2-[4-[5-chloro-1-(4-fluorophenyl)-indol-3-yl]-1-piperidyl]ethyl]imidazolidin-2-one], for which the affinity corresponds to a Ki of 640 nM.

For `O=C1Cc2cc(CCN3CCN(c4nsc5ccccc45)CC3)c(Cl)cc2N1` [5-[2-(4-Benzo[d]isothiazol-3-yl-piperazin-1-yl)-ethyl]-6-chloro-1,3-dihydro-indol-2-one], the Ki (in general, the dissociation constant of the complex between target and ligand, obtained from inhibition or displacement) was 160 nM.

The record behind these values is BindingDB's records for doi:10.1007/bf02245606 (Janssen Research Foundation, 1996).
